Reference: ChEMBL document CHEMBL4368907 (J Med Chem, 2019)

How the values were obtained:
[1] = target: T1, Gastrin/cholecystokinin type B receptor (Homo sapiens, UniProt P32239); assay: Agonist activity at human CCK2R expressed in human 1321N1 cells assessed as IP1 accumulation after 1 hr by HTRF assay; format: functional, cell-based
T1 sequence (P32239 whole entry): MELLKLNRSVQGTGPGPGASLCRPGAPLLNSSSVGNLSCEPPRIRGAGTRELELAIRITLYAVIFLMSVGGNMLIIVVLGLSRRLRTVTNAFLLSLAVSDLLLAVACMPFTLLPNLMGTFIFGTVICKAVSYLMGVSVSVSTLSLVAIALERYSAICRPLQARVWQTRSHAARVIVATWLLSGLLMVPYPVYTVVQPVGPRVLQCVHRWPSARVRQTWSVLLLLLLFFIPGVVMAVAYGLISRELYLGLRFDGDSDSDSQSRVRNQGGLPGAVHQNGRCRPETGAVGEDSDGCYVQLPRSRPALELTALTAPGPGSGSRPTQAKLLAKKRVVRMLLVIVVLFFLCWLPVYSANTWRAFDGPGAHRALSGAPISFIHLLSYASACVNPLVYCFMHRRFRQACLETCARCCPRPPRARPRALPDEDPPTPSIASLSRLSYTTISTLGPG

[2] = target: T1, Gastrin/cholecystokinin type B receptor; assay: Displacement of [125I]-CCK-8 from human CCK2R expressed in human 1321N1 cell membranes after 2 hrs by SPA assay

Compound: CSCC[C@H](NC(=O)[C@H](Cc1ccc(OS(=O)(=O)O)cc1)NC(=O)[C@H](CC(=O)O)NC(=O)COCCOCCNC(=O)COCCOCCNC(=O)CC[C@H](NC(=O)CCCCCCCCCCCCCCCCC(=O)O)C(=O)O)C(=O)NCC(=O)N[C@@H](Cc1c[nH]c2ccccc12)C(=O)N[C@@H](CCSC)C(=O)N(C)[C@H](CC(=O)O)C(=O)N(C)[C@@H](Cc1ccccc1)C(N)=O
- EC50 [1]: 0.174 µM
- IC50 [2]: 6.61 µM
